AlphaSeq binding of Ab-95 light chain variants to a spike HR2 peptide

Data: MIT Lincoln Laboratory AlphaSeq set, Engelhart et al. 2022, doi:10.1038/s41597-022-01779-4, as distributed in FLAb.

Target peptide (SARS-CoV-2 spike, HR2 region): PDVDLGDISGINAS

Ab-95 is the parent antibody, in scFv form: VH, then three GGGGS repeats, then VL. The heavy chain is unchanged in all variants.
VH: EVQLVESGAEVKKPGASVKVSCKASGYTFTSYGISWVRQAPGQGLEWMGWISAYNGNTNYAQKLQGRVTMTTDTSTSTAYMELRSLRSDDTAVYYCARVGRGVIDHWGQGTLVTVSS
VL: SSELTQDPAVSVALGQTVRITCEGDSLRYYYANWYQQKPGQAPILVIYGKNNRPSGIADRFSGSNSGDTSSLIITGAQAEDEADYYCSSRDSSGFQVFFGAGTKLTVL

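The starting antibody came from a phage panning campaign against this peptide. Library AAYL52 holds single substitutions and randomly drawn double and triple substitutions in the CDRs. AlphaSeq pools MATa yeast showing the antibodies with MATalpha yeast showing the peptide. After mating in shaken culture at 30 °C for 16 h, diploids were selected and their barcode pairs sequenced. Each replicate has its own calibration line, from reference interactions of the BCL2 family. Mating was done three times.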

Each variant is given by its three light chain CDRs, as the data file delimits them; those of the parent are EGDSLRYYYAN, GKNNRPS, SSRDSSGFQVF.
Affinities are written as log10 Kd with Kd in nM; a lower number is a better binder.
A pair that was not seen in that replicate is written "nd"; this usually means weak binding, but a binder can also be missed.
In this assay the parent's reference entry averaged 2.31; its copy inside this library read 2.25.

For EGGSLRYYYAN / GKNNRYS / SSRDSSGFKVF, the assay gave 3.93, 4.81, nd (controls 6 of 9).
For GGDSLRYYYAN / GKNNRPP / MSRDSSGFQVF, the assay gave 1.96, 1.74, 1.60 (controls 5 of 9).
For EGDSLRYYYAN / GKNNAPS / SLRDSSGFQHF, the assay gave nd, nd, nd (controls 1 of 9).
For EGDSLRYYYAT / GKNNRFS / SSRDSSGFQVF, the assay gave 4.92, 3.76, nd (controls 2 of 9).
For EGHSLRYYYAN / GKNNRPS / SSRHSSGFRVF, the assay gave 3.17, 3.09, 2.60 (controls 6 of 9).
For EGDSLRYYDAN / GKNNRPS / SSRDSVGFQDF, the assay gave 3.11, 2.84, nd (controls 2 of 9).
For EGDPLRYYYAN / GKNMRPS / SSRDSSGFWVF, the assay gave 5.05, nd, 1.75 (controls 3 of 9).
For EGDSIRYYYAN / GKNNRPS / SSRCTSGFQVF, the assay gave nd, 3.58, 3.71 (controls 3 of 9).
For EGDSARYYYAS / GKNNRPS / SSRDSSGFQVF, the assay gave nd, nd, nd (controls 3 of 9).
For EGDSLAYYYPN / GKINRPS / SSRDSSGFQVF, the assay gave 3.40, nd, nd (controls 0 of 9).
For EGDSDYYYYAN / GKNNRPS / SSHDSSGFQVF, the assay gave 3.42, 4.08, 4.13 (controls 4 of 9).
For EGDSLRYYYAN / GKNNMPG / SSRDSSGFQVR, the assay gave 3.65, 2.89, 3.81 (controls 3 of 9).
For EGDSLRYYYAN / GKNNHPE / SSRDSSDFQVF, the assay gave 3.55, nd, nd (controls 3 of 9).
For EGDSLWYYYAN / YKNNRPS / SSRDNSGFQVF, the assay gave 4.28, nd, nd (controls 0 of 9).
For EGDFLRYYYAN / GKNNRPS / SSRDASGFQVF, the assay gave 3.01, 4.66, nd (controls 3 of 9).
For EGDSLRYYYRN / GKNNRPS / SSRDSNGFQVE, the assay gave 3.33, 4.55, 4.26 (controls 6 of 9).
For EGDSIRRYYAN / GKNNRPS / SSRDSSPFQVF, the assay gave nd, 2.77, nd (controls 4 of 9).
For YGDSLRYYYAF / GKNNRPS / SSRDSSGFIVF, the assay gave nd, 4.90, 3.65 (controls 2 of 9).
For EGDMLKYYYNN / GKNNRPS / SSRDSSGFQVF, the assay gave 3.81, 3.38, 3.17 (controls 2 of 9).
For EGPSLRYYYAL / GKNNRPS / SSRDDSGFQVF, the assay gave 4.27, nd, 4.22 (controls 2 of 9).
For EGDNLRYYYAN / GKNNRPS / SSRDTSCFQVF, the assay gave nd, nd, nd (controls 3 of 9).
For EGMSLRYYYAN / GKNNRPS / SSVDSSGYQVF, the assay gave nd, nd, nd (controls 0 of 9).
For EGDSLLYYYIN / GKNNRPS / SSRDSSGFQPF, the assay gave 4.26, 4.23, 3.54 (controls 2 of 9).
For EGESLRYYYAN / GKNNRPS / MSRDSSGFIVF, the assay gave 2.72, 2.83, 2.26 (controls 3 of 9).
For EGDSCKYYYAN / GKNNRPS / SSRDHSGFQVF, the assay gave nd, 4.11, nd (controls 1 of 9).
For EGDITRYYYAN / GKNNRPS / SSRDLSGFQVF, the assay gave 4.01, 2.89, nd (controls 3 of 9).
For EGDSLRYYYTN / GKNNRPS / SSRDSGWFQVF, the assay gave 3.00, 3.06, 2.56 (controls 2 of 9).
For EGVGLRYYYAN / GKNNRPS / SSRDSSGFLVF, the assay gave 3.89, 2.86, 2.97 (controls 2 of 9).
For EGDSLRYYYAN / GLNNRHS / SSRDSSGFCVF, the assay gave nd, nd, 3.44 (controls 1 of 9).
For EGDSLRYYYAN / DKWNRPS / NSRDSSGFQVF, the assay gave nd, 2.48, 4.10 (controls 3 of 9).
For EFDSDRYYYEN / GKNNRPS / SSRDSSGFQVF, the assay gave nd, nd, 4.25 (controls 1 of 9).
For EKDSLRMYYAN / GKNNRPS / SSRDSSGFNVF, the assay gave 4.37, 3.13, nd (controls 6 of 9).
For EGDMLRLYYAN / GKNNRPS / SSTDSSGFQVF, the assay gave 4.09, nd, nd (controls 2 of 9).
For EGDSLRYYYAN / IKNNRPS / VSRDFSGFQVF, the assay gave nd, nd, nd (controls 4 of 9).
For FGDSLRYYYAN / GKNNRLS / SSRDSSGEQVF, the assay gave 3.38, 3.31, 3.99 (controls 3 of 9).
For EGDSFRYYKAN / GLNNRPS / SSRDSSGFQVF, the assay gave 2.12, 2.30, 1.73 (controls 3 of 9).
For EGDSLRYWYAN / GKNLRPS / SSRDSSGFQVD, the assay gave nd, 4.21, 4.16 (controls 3 of 9).
For EGDSLRYYYAN / LKNNRPV / SSRDSSGFQVF, the assay gave 5.50, nd, 3.92 (controls 2 of 9).
For EHDSLRYYYAK / GKNNRPS / SKRDSSGFQVF, the assay gave 3.58, nd, nd (controls 2 of 9).
For EGDSLRYYYAN / GKNDRPS / SSTDSSGFQVF, the assay gave 2.32, 1.85, 1.71 (controls 0 of 9).
For EGDSLRYYYNN / GKNNRPS / SVRDSSGFQVF, the assay gave 3.68, 3.06, 4.22 (controls 2 of 9).
For EGDSLRYYYAN / GKNNRPS / SSRDNGNFQVF, the assay gave 2.29, 2.56, 2.60 (controls 1 of 9).
For EGDSLRYWKAN / GKNNRPS / SSRDSSGFQVF, the assay gave 1.99, 2.09, 1.74 (controls 4 of 9).
For EGDSARYYYAN / GKNNMPS / SSRPSSGFQVF, the assay gave 5.51, nd, 4.35 (controls 4 of 9).
For EGDSLRYYDAN / GKNNRPH / SSRDSSGFQGF, the assay gave 1.25, 0.95, 0.61 (controls 2 of 9).

The opening 5 entries, copied out:

{"CDR-L1": "EGGSLRYYYAN", "CDR-L2": "GKNNRYS", "CDR-L3": "SSRDSSGFKVF", "log10 Kd (nM) by replicate": "3.93, 4.81, nd", "control signals": "6 of 9"}
{"CDR-L1": "GGDSLRYYYAN", "CDR-L2": "GKNNRPP", "CDR-L3": "MSRDSSGFQVF", "log10 Kd (nM) by replicate": "1.96, 1.74, 1.60", "control signals": "5 of 9"}
{"CDR-L1": "EGDSLRYYYAN", "CDR-L2": "GKNNAPS", "CDR-L3": "SLRDSSGFQHF", "log10 Kd (nM) by replicate": "nd, nd, nd", "control signals": "1 of 9"}
{"CDR-L1": "EGDSLRYYYAT", "CDR-L2": "GKNNRFS", "CDR-L3": "SSRDSSGFQVF", "log10 Kd (nM) by replicate": "4.92, 3.76, nd", "control signals": "2 of 9"}
{"CDR-L1": "EGHSLRYYYAN", "CDR-L2": "GKNNRPS", "CDR-L3": "SSRHSSGFRVF", "log10 Kd (nM) by replicate": "3.17, 3.09, 2.60", "control signals": "6 of 9"}

Three control strains display no target. For library AAYL52, 28% of the pairings with them gave a signal, with a median of 3.91 and one signal in twenty below 2.90, so weak values seen in few replicates may be background. Also given: how often the same scFv was detected with the empty control strains.